scFv variants of Ab-14 (heavy chain) against a SARS-CoV-2 spike peptide

Reference: Li et al. 2023, doi:10.1038/s41467-023-39022-2. File: FLAb, binding data.

Antigen: PDVDLGDISGINAS, a 14-residue peptide of the SARS-CoV-2 spike HR2 region.

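Phage display of a naive human antibody library on the peptide gave the parent. Designed CDR sequences, proposed from the first random library and measured here. Several design methods are mixed in this list. The scFvs were displayed on barcoded MATa yeast, the peptide on MATalpha yeast. Mating (16 h, 30 °C) was followed by selection of diploids and sequencing of their barcodes. Scores were corrected for input abundance and mapped to Kd with protein pairs of known affinity run in the same pool. Mating was done six times.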

Each scFv is VH, the linker GGGGSGGGGSGGGGS, VL, as in the parent Ab-14, and differs from it in the CDRs of the heavy chain only.
VH: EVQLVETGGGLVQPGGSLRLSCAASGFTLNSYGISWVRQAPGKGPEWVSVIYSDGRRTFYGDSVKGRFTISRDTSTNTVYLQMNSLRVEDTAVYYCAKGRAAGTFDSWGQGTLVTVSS
VL: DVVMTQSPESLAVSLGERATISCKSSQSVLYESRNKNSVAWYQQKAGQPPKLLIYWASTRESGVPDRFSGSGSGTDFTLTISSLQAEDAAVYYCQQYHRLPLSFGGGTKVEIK

Each variant is given by its three heavy chain CDRs, as the data file delimits them; those of the parent are GFTLNSYGIS, VIYSDGRRTFYGDSVK, GRAAGTFDS. This list holds designs with more than six substitutions. The Kd shown is the geometric mean over detected replicates; a lower Kd is a better binder. An entry "nd" has no value in the source: the pair was not observed among the diploids in any replicate. This suggests poor binding but is not conclusive. The authors averaged sequences with at least three values out of six and counted those with two or fewer as poor binders. A sequence measured in both rounds can read differently, since the two assays cover different ranges. Background: pairings of all heavy chain designs with three empty control strains gave a value in 1% of cases (median 120 nM, 5th percentile 7.0 nM). Values in that range, when seen in few replicates, are hard to tell from nonspecific mating. The control count says in how many pairings with the empty strains this scFv gave a signal. Of ten entries with the parent sequence, four were seen in most replicates (averages 2.2 nM to 240 nM), three in one and three in none, so single entries are noisy.

Variant GFDLDEYGIS / VIYADGMRTAYADSVK / GQNAGTFDL showed 340 pM (6 of 6 replicates; controls 0 of 18). For GFDLNEYGIS / VIYADGKRTAYSDSVK / GEVAGTFVS, the assay gave 470 pM (6 of 6 replicates; controls 1 of 18). With GFDLNEYGIS / VIYADGMRTSYADSVK / GNVAGTFDM the result was 410 pM (6 of 6 replicates; controls 0 of 18). With GFKLDEYGIS / VIYADGRRTFYADSVK / GNVAGTFDQ the result was 190 pM (6 of 6 replicates; controls 0 of 18). Variant GADLNEYGIS / VIYADGSRVEYENKFK / GDVAGTFDS gave 9.1 nM (6 of 6 replicates; controls 0 of 18). Variant GFQLEEYGIS / VIYADGSRTAYQDSVK / GKYKFSLIV showed nd (0 of 6 replicates; controls 0 of 18).

For GFDIEEYGIS / VIYADGKRMAYSNNVK / GLMAGTMID, the assay gave 1.6 µM (1 of 6 replicates; controls 1 of 18). With GFDLNEYGIS / VIYADGKRTAYADSVK / GNNAGTFVQ the result was 33 nM (6 of 6 replicates; controls 0 of 18). For GQDINEYGIS / VIYADGIRTAYAISVK / GYHGSQFDI, the assay gave 3.3 nM (5 of 6 replicates; controls 0 of 18). With GFDLDEYGIS / VIYADGSRTAYADNVK / GNVAGTFDV the result was 950 pM (6 of 6 replicates; controls 1 of 18). Variant GFDLNEYGIS / VIYADGLRQAYEDSVK / GRNIIGFLF showed 22 nM (2 of 6 replicates; controls 0 of 18). Variant GFDLNEYGIS / VIYADGMRTQYIDSVK / GNQAGTFDL gave 1.7 nM (6 of 6 replicates; controls 0 of 18).

Variant GGDLNEYGIS / VIYADGNRKNYADNVK / GQNGDVLNI showed 45 nM (6 of 6 replicates; controls 1 of 18). For GFDLNEYGIS / VIYADGRRKFYADKVK / GNNAGTFNV, the assay gave 740 pM (6 of 6 replicates; controls 0 of 18). Variant GFDLDEYGIS / VIYADGKRTFYADSVK / GEAAGTFDS gave 730 pM (6 of 6 replicates; controls 0 of 18). Variant GNSLDEYGIS / VIYADGMRTAYTDDVK / GLVAMTLVD showed nd (0 of 6 replicates; controls 0 of 18). With GFDIGEYGIS / VIYADGSRTAYAKNVK / GGDVYKDAV the result was nd (0 of 6 replicates; controls 0 of 18). With GFDLDEYGIS / VIYADGMRTAYADSVK / GNNAGTFDV the result was 810 pM (6 of 6 replicates; controls 0 of 18).

With GFDLNEYGIS / VIYADGSRTYYADSVK / GNVAGTFDV the result was 300 pM (6 of 6 replicates; controls 2 of 18). Variant GFDLNEYGIS / VIYADGRRTQYIDSVK / GEIAGTFDQ showed 1.2 nM (6 of 6 replicates; controls 0 of 18). With GFDINEYGIS / VIYADGQRVYYAEKVK / GFNQTINVL the result was 2.7 µM (1 of 6 replicates; controls 0 of 18). Variant GFSLDEYGIS / VIYADGRRTFYQDDVK / GNVAGTFDF gave 110 pM (6 of 6 replicates; controls 0 of 18). For GFSIDEQGIS / VIYADGIRASYAEKVK / GQYGGDFIE, the assay gave nd (0 of 6 replicates; controls 0 of 18). For GFNFDEYGIS / VIYADGVRNFYSDSVK / GYIGGFMEV, the assay gave 6.3 nM (2 of 6 replicates; controls 0 of 18).

Variant GFDLNEYGIS / VIYADGQRTFYADSVK / GNVAGTFDT gave 360 pM (6 of 6 replicates; controls 0 of 18). For GFDLNEYGIS / VIYADGKRTYYADSVK / GEVAGTFDI, the assay gave 190 pM (6 of 6 replicates; controls 1 of 18). For GFDLDEYGIS / VIYADGMRTAYSDSVK / GANAGTFDI, the assay gave 780 pM (6 of 6 replicates; controls 0 of 18). Variant GFDLNEYGIS / VIYADGSRQMYANNVK / DHMGGMKLV showed 25 nM (1 of 6 replicates; controls 0 of 18). For GFDLNEYGIS / VIYADGMRTAYTDSVK / GGNAGTFDV, the assay gave 870 pM (6 of 6 replicates; controls 0 of 18). Variant GFDLDEYGIS / VIYADGQRTVYADSVK / GEVAGTFDV showed nd (0 of 6 replicates; controls 0 of 18).

Variant GFDLNEYGIS / VIYADGMRTYYTDSVK / GNVAGTFDV showed 250 pM (6 of 6 replicates; controls 0 of 18). For GFDLNEYGIS / VIYADGSRTAYADSVK / GNNAGTFDQ, the assay gave 680 pM (6 of 6 replicates; controls 0 of 18). Variant GFDLDEYGIS / VIYADGMRTAYADSVK / GENAGTFDV gave 380 pM (6 of 6 replicates; controls 0 of 18). Variant GFSINEYGIS / VIYADGLRQFYTNAVK / GMAAVTFDQ gave nd (0 of 6 replicates; controls 0 of 18). For GFDLNEYGIS / VIYADGLRTAYADSVK / GENAGTFDV, the assay gave 1.9 nM (6 of 6 replicates; controls 0 of 18). For GMNLDEYGIS / VIYADGSRVFYVQDVK / GTVDTVGDV, the assay gave nd (0 of 6 replicates; controls 1 of 18).

With GKGLDEYGVS / VIYADGKRHFYAEDVK / GGIAGQFLV the result was nd (0 of 6 replicates; controls 0 of 18). Variant GFSLDEYGIS / VIYADGTRTFYTDNVK / GLISMVCGL gave nd (0 of 6 replicates; controls 0 of 18).

Picked from the list: the 2 lowest averages where every replicate gave a value.

{"CDR-H1": "GFSLDEYGIS", "CDR-H2": "VIYADGRRTFYQDDVK", "CDR-H3": "GNVAGTFDF", "Kd (apparent)": "110 pM", "seen in": "6/6", "empty controls": "0/18"}
{"CDR-H1": "GFKLDEYGIS", "CDR-H2": "VIYADGRRTFYADSVK", "CDR-H3": "GNVAGTFDQ", "Kd (apparent)": "190 pM", "seen in": "6/6", "empty controls": "0/18"}